Assay results from ChEMBL document CHEMBL2034964, “Investigation of the binding pocket of human hematopoietic prostaglandin (PG) D2 synthase (hH-PGDS): a tale of two waters” (Bioorg Med Chem Lett, 2012).

Chains of the proteins cited; added tags and fusions are not shown. Lines headed by an entry give the natural chain unless they say otherwise; changes in a name come on top.
UniProt O60760: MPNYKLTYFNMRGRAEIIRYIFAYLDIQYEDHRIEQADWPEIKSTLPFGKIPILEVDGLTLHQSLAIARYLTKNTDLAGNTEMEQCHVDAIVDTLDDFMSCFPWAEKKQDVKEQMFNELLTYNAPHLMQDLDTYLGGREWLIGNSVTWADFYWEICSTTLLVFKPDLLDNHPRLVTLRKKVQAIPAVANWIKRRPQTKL

Target: Hematopoietic prostaglandin D synthase (Homo sapiens, UniProt O60760)
Test: Inhibition of human recombinant HPGDS using PGH2 as substrate assessed as production of PGD2 preincubated for 10 mins prior substrate addition measured after 42 secs by TBA-based fluorescence assay

IC50: 845 nM
Compound: NCc1ccc2ccccc2c1-c1ccc(C(=O)NCCN2CCOCC2)cc1
